For this assay, the target named is 5-hydroxytryptamine receptor 2C (Homo sapiens, UniProt P28335). As to the kind of experiment: Displacement of [3H]mesulergine from 5-hydroxytryptamine 2C receptor expressed in HEK 293 cells. The format is cell-based, HEK293. An outline of the steps:
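Human cloned receptors expressed in HEK 293 cells. Radioligands: [3H]5-HT for 5-HT2B, [3H]ketanserin for 5-HT2A, [3H]mesulergine for 5-HT2C. Each value is the mean of at least two determinations, each within 0.2 log unit of the mean.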
(In general: Loss of bound radioactivity is the signal in a displacement assay; it reports binding, not function.)

Protein sequences, listed by entry. Tags and fused reporters are not part of them. Lines headed by an entry give the natural chain unless they say otherwise; changes in a name come on top.
UniProt P28335: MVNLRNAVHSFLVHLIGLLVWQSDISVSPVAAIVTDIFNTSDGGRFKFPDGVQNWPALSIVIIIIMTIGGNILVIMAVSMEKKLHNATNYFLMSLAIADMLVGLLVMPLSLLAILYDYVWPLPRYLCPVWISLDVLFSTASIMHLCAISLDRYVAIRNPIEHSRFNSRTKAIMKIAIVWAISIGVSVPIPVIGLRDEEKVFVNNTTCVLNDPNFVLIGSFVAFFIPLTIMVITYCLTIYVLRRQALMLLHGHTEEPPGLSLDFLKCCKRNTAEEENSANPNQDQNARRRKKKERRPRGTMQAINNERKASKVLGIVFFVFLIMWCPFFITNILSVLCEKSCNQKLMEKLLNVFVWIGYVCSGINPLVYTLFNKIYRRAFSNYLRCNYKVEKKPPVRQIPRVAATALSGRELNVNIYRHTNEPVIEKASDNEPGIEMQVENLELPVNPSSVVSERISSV

The structures appear in SMILES notation. pKi: −log10 of the molar value.

The values that follow come from ChEMBL document CHEMBL1130195, “6-Chloro-5-methyl-1-[[2-[(2-methyl-3-pyridyl)oxy]-5-pyridyl]carbamoyl]- indoline (SB-242084): the first selective and brain penetrant 5-HT2C receptor antagonist” (J Med Chem, 1997).

As to `Cn1ccc2cc3c(cc21)CCN3C(=O)Nc1cccnc1`, the pKi (as a rule, the Ki on a negative log10 scale, so that one unit is a factor of ten) is 7.90.
